Only a part is listed here, and it is no random draw. Some salts or complexes appear as unconnected parts, following the source record. The source made the active and inactive calls.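 Rule for the calls: active = GFP response versus DMSO above a set limit, roughly screen mean plus 3 SD (cut at about 180% in these data); inconclusive = fewer than 70 cells counted for a yeast strain; inactive = the rest.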
Test: modulators of MEP2-GFP levels in yeast, primary screen, S. cerevisiae, multiplex flow cytometry, MLPCN library (AID 2016);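 note: median GFP fluorescence of the barcode-gated MEP2-GFP cells per well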
Conditions: S. cerevisiae MEP2-GFP strain, 3 h, at 10 µM, hits give high values, 100% = DMSO control level

SMILES	GFP response vs DMSO
Cc1cc(C)cc(OP(C)(=O)Nc2cccc(C(F)(F)F)c2)c1 (centres undefined)	inactive: 103%
COc1ccc(OP(C)(=O)Nc2ccccc2Br)cc1 (centres undefined)	inactive: 95.7%
COc1ccccc1OP(C)(=O)Nc1ccc(C)c(C)c1 (centres undefined)	inactive: 95.8%
Cc1nc2ccc3ccccc3c2o1.O=[N+]([O-])c1cc([N+](=O)[O-])c(O)c([N+](=O)[O-])c1	inactive: 104%
CP(=O)(OCCOc1ccccc1)OCCOc1ccccc1	inactive: 98%
CP(=O)(Nc1ccc(Cl)cc1Cl)Oc1ccccc1 (centres undefined)	inactive: 93.2%
COc1ccccc1OP(C)(=O)Nc1ccc(Br)cc1 (centres undefined)	inactive: 100%
CN(C)CCOC(=O)C(O)(c1ccccc1)C1CCCC1 (centres undefined)	inactive: 108%
COc1ccc(OP(C)(=O)Nc2ccccn2)cc1 (centres undefined)	inactive: 107%
O=[N+]([O-])c1cc([N+](=O)[O-])c(Nc2ccccn2)c([N+](=O)[O-])c1	inactive: 104%
Cc1c(NP(C)(=O)Oc2ccc(C(C)C)cc2)c(=O)n(-c2ccccc2)n1C (centres undefined)	inactive: 103%
CCc1ccc(OP(C)(=O)O)cc1	inactive: 117%
COc1ccccc1OP(C)(=O)Nc1ccc(C)cc1C (centres undefined)	inactive: 100%
CP(=O)(Nc1ccccn1)Oc1ccccc1 (centres undefined)	inactive: 106%
COc1ccc(OP(C)(=O)Nc2ccc(Br)cc2)cc1 (centres undefined)	inactive: 81.7%
CCN(CC)CC(O)COC(=O)C(O)(c1ccccc1)C1CCCCC1 (centres undefined)	inactive: 97.9%
CCc1ccc(OP(C)(=O)Nc2cccnc2)cc1 (centres undefined)	inactive: 106%
CP(=O)(Oc1ccccc1)N1CCOC1=O (centres undefined)	inactive: 99.8%
O=C(OCCCN1CCCC1)C(O)(c1ccccc1)C1CCCCC1 (centres undefined)	inactive: 102%
COc1ccccc1OP(C)(=O)Nc1c(C)n(C)n(-c2ccccc2)c1=O (centres undefined)	inactive: 80.4%
CP(=O)(Nc1ccc(Cl)cc1)Oc1ccc(F)cc1 (centres undefined)	inactive: 91.7%
CC(C)(C)c1ccc(OP(C)(=O)O)cc1	inactive: 104%

SMILES	GFP response vs DMSO
COc1ccccc1OP(C)(=O)Nc1ccccc1Br (centres undefined)	inactive: 110%
CN(C)C(=O)c1c([N+](=O)[O-])cc([N+](=O)[O-])cc1[N+](=O)[O-]	inactive: 94.6%
Nc1ccc2c(ccc3cccnc32)n1.O=[N+]([O-])c1cc([N+](=O)[O-])c(O)c([N+](=O)[O-])c1	inactive: 101%
CP(=O)(OC12CC3CC(CC(C3)C1)C2)OC12CC3CC(CC(C3)C1)C2	inactive: 99.6%
CCOC(=O)c1ccc(NP(C)(=O)Oc2ccc(Cl)cc2)cc1 (centres undefined)	inactive: 104%
COc1ccc(OP(C)(=O)Nc2cccc(Br)c2)cc1 (centres undefined)	inactive: 110%
COc1ccc(NP(C)(=O)Oc2ccccc2OC)cc1 (centres undefined)	inactive: 97.7%
CN(C)CCOC(=O)C(O)(c1ccccc1)C1CCCCC1 (centres undefined)	inactive: 104%
O=[N+]([O-])c1cc([N+](=O)[O-])c(NCC2CCS(=O)(=O)C2)c([N+](=O)[O-])c1 (centres undefined)	inactive: 111%
O=[N+]([O-])c1ccc(OP2(=O)COCCO2)cc1 (centres undefined)	inactive: 102%
CP(=O)(Nc1ccc(SC(F)(F)F)cc1)Oc1ccc(F)cc1 (centres undefined)	inactive: 104%
CCOP(C)(=S)SCC(=O)NC(C)(CC)C(=O)O (centres undefined)	inactive: 103%
CP(=O)(Nc1ccc2c(c1)OCCO2)Oc1ccccc1 (centres undefined)	inactive: 93.2%
Cc1ccccc1NP(C)(=O)Nc1ccccc1C	inactive: 99%
CC(C)c1ccc(OP(C)(=O)Nc2ccc(SC(F)(F)F)cc2)cc1 (centres undefined)	inactive: 108%
CP(=O)(Nc1ccccc1F)Oc1ccccc1 (centres undefined)	inactive: 94.2%
O=C(OCCN1CCN(CCOCc2ccccc2)CC1)C(O)(c1ccccc1)c1ccccc1	inactive: 98.5%
O=C(OC1CN2CCC1CC2)c1ccc([N+](=O)[O-])cc1 (centres undefined)	inactive: 98.1%
COc1ccc2c(c1O)-c1c(O)c(OC)cc3c1[C@H](C2)[N+](C)(C)CC3.O=[N+]([O-])c1cc([N+](=O)[O-])c([O-])c([N+](=O)[O-])c1[O-]	inactive: 96.1%
COc1ccc(OP(C)(=O)Nc2ccc(SC(F)(F)F)cc2)cc1 (centres undefined)	inactive: 94.2%
CCOC(=O)c1ccc(NP(C)(=O)Oc2ccc(F)cc2)cc1 (centres undefined)	inactive: 106%
CCN(CC)CCCOC(=O)C(O)(c1ccccc1)C1CCCCC1 (centres undefined)	inactive: 109%

Source: PubChem BioAssay AID2016 (NMMLSC, 2009)
